These results are taken from PubChem BioAssay AID2101 (National Center for Advancing Translational Sciences (NCATS), 2009).

Only a part is listed here, and it is no random draw. Records with an inconclusive call do not appear. Some salts or complexes appear as unconnected parts, following the source record. Calls of active or inactive are those of the source. Calls follow the shape of the dose curve; as a rule, active = well fitted inhibition curve with a large enough effect; inconclusive = small, poorly fitted or top-dose-only effect, or effect the other way, or another doubt; inactive = no such curve, though single readings can be large or run the other way.

The test concerns the target Lysosomal acid glucosylceramidase (Homo sapiens) (UniProt P04062). Briefly: qHTS Assay for Inhibitors and Activators of N370S glucocerebrosidase as a Potential Chaperone Treatment of Gaucher Disease.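 Also: 0% = full enzyme activity and -100% = no enzyme basal.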 Conditions: N370S GC spleen homogenate, 4MU-glucoside fluorescence; at 59.4 µM (top of the series). An excerpt:
NIH Chemical Genomics Center [NCGC]
NIH Molecular Libraries Probe Production Centers Network [MLPCN]
Assay Submitter (PI): Wei Zheng
Glucocerebrosidase (GC) catalyzes the hydrolysis of beta-glucocerebroside to glucose and ceramide in lysosomes. Mutations in the glucocerebrosidase gene result in Gaucher disease, an autosomal recessive lysosomal storage disorder. Many of the mutations encountered in patients with Gaucher disease are missense alterations that may cause misfolding, decreased stability and/or mistrafficking of this lysosomal protein. […] These inhibitors include iminosugar analogs and three non-iminosugar inhibitors identified from a previous HTS of 62,000 compounds with the wild type recombinant enzyme. However, the enhancement of enzyme activity by the chaperone action of an enzyme inhibitor must be balanced against the direct inhibition of the enzyme. An enzyme activator could also function as a chaperone by binding to the enzyme and helping to correct its misfolding and mistrafficking. While activators for GC have not yet been identified, they may have better therapeutic potential than inhibitors. Therefore the discovery and development of chemical activators may provide a new strategy for the chaperone therapy.
We have optimized a new assay using N370S mutant GC derived from the spleen of a Gaucher patient. […] In addition, the MLPCN compound library has expanded, which increases the chance of finding new and better probes.
NCGC Assay Protocol Summary:
This is a fluorogenic enzyme assay with 4-methylumbelliferyl-beta-D-glucopyranoside as the substrate and N370S glucocerebrosidase from human spleen homogenate as the enzyme preparation. Upon the hydrolysis of this fluorogenic substrate, the resulting product, […] which can be detected by a standard fluorescence plate reader. Data were normalized to the controls for basal activity (without enzyme) and 100% activity (with enzyme). The AC50 values were determined from concentration-response data modeled with the standard Hill equation.
Assay buffer: 50 mM citric acid (titrated with potassium phosphate to pH 5.0), 100 mM potassium chloride, 10 mM sodium chloride, 1 mM magnesium chloride, 0.01% Tween-20.
1536-well assay protocol:
(1) Add 2 ul/well of spleen homogenate (27 ug final)
(2) Add 23 nL compounds in DMSO solution. The final titration was 0.5 nM to 58 uM.
(3) Add 2 ul of substrate (1 mM final)
(4) Incubate at 37C for 40 min.
(5) Add 2 ul stop solution (1M NaOH and 1M Glycine mixture, pH 10)
(6) Detect the assay plate in a ViewLux plate reader (PerkinElmer) with Ex=365 nm and Em=440nm.
Keywords: Glucocerebrosidase, beta-glucosidase, Gaucher Disease, pharmacological chaperone, chaperone therapy, high throughput screening, glucocerebrosidase inhibitor, MLSMR, MLSCN, NIH Roadmap, qHTS and NCGC
On the technique in general: In qHTS, concentration-response curves come from the screen itself.
Turning to `O=C(NCC1(N2CCCCC2)CCCCC1)c1ccc(Cl)nc1`, the activity change, negative = inhibition is inactive: -9.06%.

Consider `Cc1cc(C)cc(N(C(=O)c2ccccc2)C2CCN(C(=O)OC(C)(C)C)CC2)c1`, for which the activity change, negative = inhibition was inactive: -2.02%.

`O=C(NCC1(N2CCOCC2)CCCCC1)c1cc2ccccc2o1`: the activity change, negative = inhibition was inactive: -2.65%.

As to `O=C(OC1CN2CCC1CC2)C1c2ccccc2Oc2ccccc21` (stereo unspecified), the activity change, negative = inhibition is inactive: -21.8%.

`N#CC1(Nc2ccccc2)CCN(Cc2ccccc2)CC1`: the activity change, negative = inhibition was inactive: -6.98%.

For the compound `CCOC(=O)N1CCC(Nc2ccc(OC)cc2)CC1`, the activity change, negative = inhibition was inactive: 2.79%.

For `COc1ccc(C(=O)NCC2(N3CCCCC3)CCCCC2)cc1`, the activity change, negative = inhibition is inactive: -11.4%.

For the compound `COc1ccc(C(=O)NCC2(N3CCCCC3)CCCCC2)c(OC)c1OC`, the activity change, negative = inhibition is inactive: -11.7%.

On to `CC(C)(C)OC(=O)N1CCC(N(C(=O)c2ccccc2)c2ccc(F)cc2)CC1`, for which the activity change, negative = inhibition was inactive: 1.61%.

As to `O=C(NCC1(N2CCCCC2)CCCCC1)c1ccc(=O)[nH]c1`, the activity change, negative = inhibition is inactive: -7.18%.

Take `O=C(NCC1(N2CCCCC2)CCCCC1)c1cccs1`: the activity change, negative = inhibition was inactive: -10.6%.

For the compound `CSc1ccccc1C(=O)NCC1(N2CCCCC2)CCCCC1`, the activity change, negative = inhibition is inactive: -9.66%.

For the compound `COc1cc(C(=O)NCC2(N(C)C)CCCCC2)ccc1OC(F)F`, the activity change, negative = inhibition was inactive: 0.277%.

On to `CCOC(=O)N1CCC(Nc2cccc(C)c2)CC1`, for which the activity change, negative = inhibition is inactive: 3.86%.

For the compound `CCOc1ccc(C)cc1CN(CCCl)CCCl`, the activity change, negative = inhibition was inactive: -17.1%.

Take `O=C(NCC1(N2CCCCC2)CCCCC1)c1ccc(F)cc1`: the activity change, negative = inhibition is inactive: -4.94%.

Turning to `CCCCOc1ccc(C(=O)NCC2(N3CCOCC3)CCCCC2)cc1`, the activity change, negative = inhibition is inactive: -3.13%.

On to `CCOC(=O)N1CCC(Nc2ccc(F)cc2)CC1`, for which the activity change, negative = inhibition was inactive: -6.93%.

For `O=[N+]([O-])c1cc([N+](=O)[O-])c(NCC2CCS(=O)(=O)C2)c([N+](=O)[O-])c1` (stereo unspecified), the activity change, negative = inhibition was inactive: -23.9%.

With `O=C(NCC1(N2CCCCC2)CCCCC1)c1cccc(C(F)(F)F)c1`, the activity change, negative = inhibition was inactive: 2.91%.

Regarding `O=C(NCC1(N2CCOCC2)CCCCC1)c1cc(=O)[nH]c2ccccc12`, the activity change, negative = inhibition was inactive: -6.98%.

Regarding `COc1cc(C(=O)NCC2(N3CCCCC3)CCCCC2)ccc1OC(F)F`, the activity change, negative = inhibition was inactive: -3.3%.

With `COc1ccc(NC2CCN(C(=O)OC(C)(C)C)CC2)cc1`, the activity change, negative = inhibition is inactive: -4.51%.

For the compound `CC(C)c1ccc(C(=O)NCC2(N3CCOCC3)CCCCC2)cc1`, the activity change, negative = inhibition is inactive: -2.4%.

On to `CN1CCN(CCOC(=O)C(O)(c2ccccc2)c2ccccc2)CC1`, for which the activity change, negative = inhibition is inactive: -13.5%.

Consider `O=C(NCC1(N2CCCCC2)CCCCC1)c1ccc(OC(F)F)cc1`, for which the activity change, negative = inhibition was inactive: -9.94%.

As for `CCN1CCC(Nc2ccc(Cl)cc2)CC1`, the activity change, negative = inhibition was inactive: -4.46%.

Take `N#CC1(Nc2ccccc2)CCN(CCc2ccccc2)CC1`: the activity change, negative = inhibition is inactive: -2.42%.

As to `CSc1ccc(C(=O)NCC2(N3CCOCC3)CCCCC2)cc1`, the activity change, negative = inhibition was inactive: -14.5%.

As for `O=C(NCC1(N2CCCCC2)CCCCC1)c1cccc([N+](=O)[O-])c1`, the activity change, negative = inhibition is inactive: 4.36%.

Regarding `O=C(OC1CN2CCC1CC2)c1ccc([N+](=O)[O-])cc1` (stereo unspecified), the activity change, negative = inhibition was inactive: 3.26%.

With `COc1ccc2c(c1O)-c1c(O)c(OC)cc3c1[C@H](C2)[N+](C)(C)CC3.O=[N+]([O-])c1cc([N+](=O)[O-])c([O-])c([N+](=O)[O-])c1[O-]`, the activity change, negative = inhibition is inactive: -13.2%.

As to `CCCOc1ccc(C(=O)NCC2(N(C)C)CCCCC2)cc1OC`, the activity change, negative = inhibition is inactive: 0.894%.

In the case of `CC(C)c1ccc(NC2CCN(C(=O)OC(C)(C)C)CC2)cc1`, the activity change, negative = inhibition was inactive: 8.34%.

For `COc1ccc(CN(CCCl)CCCl)cc1Cl`, the activity change, negative = inhibition was inactive: 22.3%.

`CN(C)c1cccc(C(=O)NCC2(N3CCCCC3)CCCCC2)c1`: the activity change, negative = inhibition is inactive: -2.72%.

Take `O=[N+]([O-])c1cc([N+](=O)[O-])c(OC2CCCCC2O)c([N+](=O)[O-])c1` (stereo unspecified): the activity change, negative = inhibition was inactive: -12.5%.

For the compound `COc1cc(OC)c(C(=O)NCC2(N(C)C)CCCCC2)cc1OC`, the activity change, negative = inhibition is inactive: 1.34%.

As for `CCOP(=O)(Cl)Cl`, the activity change, negative = inhibition was inactive: 1.08%.

Regarding `CCOC(=O)N1CCC(Nc2ccc(C)cc2)CC1`, the activity change, negative = inhibition is inactive: 1.73%.

In the case of `N/C(=N\O)c1c(N)no[n+]1[O-]`, the activity change, negative = inhibition was inactive: 4.94%.

As to `O=C(OC1CN2CCC1CC2)C1c2ccccc2C=Cc2ccccc21` (stereo unspecified), the activity change, negative = inhibition was inactive: -17.4%.

Take `CCc1cc(C(=O)NCC2(N3CCCCC3)CCCCC2)sc1C`: the activity change, negative = inhibition is inactive: -9.19%.

On to `O=C(O)c1cccc(Nc2c([N+](=O)[O-])cc([N+](=O)[O-])cc2[N+](=O)[O-])c1`, for which the activity change, negative = inhibition was inactive: -23.5%.

For the compound `COc1ccc(C(=O)NCC2(N3CCOCC3)CCCCC2)cc1OC`, the activity change, negative = inhibition was inactive: 9.91%.

As for `ClCCOP(OCCCl)OCCCl`, the activity change, negative = inhibition was inactive: -1.61%.

On to `CN(C)C1(CNC(=O)c2cccc(C#N)c2)CCCCC1`, for which the activity change, negative = inhibition is inactive: -10.3%.

Take `c1ccc(CN2CCC(Nc3ccccc3)CC2)cc1`: the activity change, negative = inhibition was inactive: -1.46%.

Consider `CCCN1CCC(Nc2cc(OC)cc(OC)c2)CC1`, for which the activity change, negative = inhibition was inactive: -19.4%.

In the case of `N#Cc1ccc(C(=O)NCC2(N3CCCCC3)CCCCC2)cc1`, the activity change, negative = inhibition was inactive: -14.7%.

Regarding `CC(C)(C)OC(=O)N1CCC(N(C(=O)c2ccccc2)c2ccc(Cl)cc2)CC1`, the activity change, negative = inhibition is inactive: -11.8%.

`CCOC(=O)C(CC)C1=NC(C)(C)Cc2ccccc21.O=[N+]([O-])c1cc([N+](=O)[O-])c(O)c([N+](=O)[O-])c1` (stereo unspecified): the activity change, negative = inhibition was inactive: -11.5%.

In the case of `CCN1CCC(Nc2cccc(F)c2)CC1`, the activity change, negative = inhibition is inactive: 0.776%.

For `CN(C)c1ccc(C(=O)NCC2(N3CCCCC3)CCCCC2)cc1`, the activity change, negative = inhibition is inactive: 6.87%.

With `COc1cc(OC)cc(C(=O)NCC2(N3CCCCC3)CCCCC2)c1`, the activity change, negative = inhibition is inactive: -0.432%.

Consider `Cc1ccc(C(=O)NCC2(N3CCCCC3)CCCCC2)o1`, for which the activity change, negative = inhibition is inactive: -20%.

`Fc1ccccc1NC1CCN(Cc2ccccc2)CC1`: the activity change, negative = inhibition was inactive: -2.77%.

For the compound `COc1cccc(C(=O)N(c2cc(C)cc(C)c2)C2CCN(C(=O)OC(C)(C)C)CC2)c1`, the activity change, negative = inhibition is inactive: -14.7%.

Consider `COc1cc(OC)cc(C(=O)NCC2(N3CCOCC3)CCCCC2)c1`, for which the activity change, negative = inhibition was inactive: 1.58%.

Regarding `CCC(CO)(C(=O)OC1CN2CCC1CC2)c1ccccc1` (stereo unspecified), the activity change, negative = inhibition is inactive: -2.13%.

Consider `CN1CCC(Nc2ccc(Cl)cc2)CC1`, for which the activity change, negative = inhibition was inactive: -15.9%.

In the case of `CCCOc1ccc(C)cc1CN(CCCl)CCCl`, the activity change, negative = inhibition was inactive: -16.7%.

For `CCOc1ncccc1C(=O)NCC1(N2CCOCC2)CCCCC1`, the activity change, negative = inhibition is inactive: 2.03%.

For `CC(C)(C)OC(=O)N1CCC(Nc2ccccc2)CC1`, the activity change, negative = inhibition is inactive: 0.0863%.

As to `O=C(O)C1(Nc2ccccc2)CCN(Cc2ccccc2)CC1`, the activity change, negative = inhibition is inactive: -24.5%.

`CCCOc1ccc(C(=O)NCC2(N(C)C)CCCCC2)cc1`: the activity change, negative = inhibition is inactive: -6.76%.
